Reference: patent publication US4970206A, “Pyroglutamic acid esters used as dermal penetration enhancers for drugs” (Merck & Co., Inc., priority 1989, dated 1990)

Test: Permeation enhancement of enalapril, clonidine and acyclovir using pyroglutamic esters
Assay type: in vitro ADME, Elaphae obsolete (black rat snake)
Settings: no enhancer, n = 13
Method: In the examples given below, the permeation enhancement was determined using an in vitro diffusion cell procedure. The molts of adult Elaphae obsolete (black rat snake) was used as the model for stratum corneum membrane (R. Ibuki, Ph.D. Thesis, University of Kansas, 1985). The shed snake skin has great similarities to human skin in terms of thickness, composition of constituents and structure and has been proposed as the most suitable model for human stratum corneum for permeability studies.
Glass diffusion cells consisting of a donor and receptor cells separated by the shed snake skin membrane were assembled using circular O-ring joints held together by spring clamps. The exposed membrane surface area of the diffusion cell measured 1.8 cm^2. Before being mounted in the diffusion cell approximately 25 mg of an ointment containing the therapeutic agent and the penetration enhancer was carefully applied to the membrane and was spread over the desired area. The receptor side was filled with approximately 8.5 ml of buffer solution consisting of 1.5×10^-1 M NaCl, 5×10^-4 NaH2 PO4 and 2.0×10^-4 M Na2 HPO4 adjusted to pH 7.2 with NaOH. The diffusion cell was immersed vertically in a water bath maintained at 32°±1° C. […] The concentration of drug penetrated in each diffusion cell was measured using high pressure liquid chromatography. […]

## CCOC(=O)[C@H](CCc1ccccc1)N[C@@H](C)C(=O)N1CCC[C@H]1C(=O)O [Enalapril, reference compound]
  % delivered in 48 hrs ± SD: 0.9 ± 0.5%
